{"source": "patent US20200038438A1", "about": "“ANGSTROM SILVER INJECTION FOR CANCER INHIBITION, PREPARATION METHOD AND APPLICATION THEREOF” (Shenzhen AMCAN Medical Biotechnology Limited, priority 2018, published 2020)", "key": {"[1]": {"test_system": "human non-small cell lung cancer cells A549", "assay": "CellTiter-Glo cell viability, 72 hours", "type": "cell-based", "details": "A549, 1000 nM, duplicate wells", "source_text": "(§1) A first exemplary embodiment is shown a detection of the angstrom silver on a proliferation influence of human non-small cell lung cancer cells A549 and human hepatocellular carcinoma cells HepG2.\n(§2) Reagents and consumables shown below: 1. HepG2, provided by HD Biosciences (Shanghai) Co., Ltd., and passed a mycoplasma detection; 2, F 12K culture medium, American Gibco, Art. No.: 21127-022; 3. EMEM culture medium, American ATCC, Art. No.: 30-2003; 4. Fetal bovine serum (FBS), American Hyclone, Art. No.: CH30160.03; 5. Penicillin-streptomycin liquid, American Invitrogen, Art. No.: CH15140-122; 6. […] Plate reader, American Perkin Elmer, EnVision Multilabel Plate Reader. […]\n(§3) 3. […] At this time, the gradient concentration of a compound to be measured includes 150 ppm, 15 ppm, 1.5 ppm, 0.15 ppm and 0.015 ppm, which is a 2-by-compound solution to be used to treat cells.\n(§4) 4. […] At this time, the gradient concentration of the compound to be measured includes 2 μM, 200 nM, 20 nM, 2 nM and 0.2 nM, which is a 2-by-compound solution to be used to treat cells. […]\n(§5) 5. Placing the 96-well cell culture plate in a plate reader to analyze it, and setting it to read chemical luminescence and record data.\n(§6) Readout in each hole needs to be converted to a cell viability. The cell viability can be calculated by the following formula: […]"}, "[2]": {"test_system": "human hepatocellular carcinoma cells HepG2", "assay": "CellTiter-Glo cell viability, 72 hours", "type": "cell-based", "details": "HepG2, 10 nM, duplicate wells", "source_text": "as §1, §2, §3, §4, §5, §6"}}}
{"smiles": "CN[C@@H]1C[C@H]2O[C@@](C)([C@@H]1OC)n1c3ccccc3c3c4c(c5c6ccccc6n2c5c31)C(=O)NC4", "note": "[STSP]", "values": [{"measurement": "Percentage of cell growth", "setting": "[1]", "value": 11.3, "unit": "%"}, {"measurement": "Percentage of cell growth", "setting": "[2]", "value": 81.7, "unit": "%"}]}
